The structures appear in SMILES notation.

Amino acid sequences for entries named in this document (tags omitted). Residues count along the entry.
UniProt Q00960, 27-1482: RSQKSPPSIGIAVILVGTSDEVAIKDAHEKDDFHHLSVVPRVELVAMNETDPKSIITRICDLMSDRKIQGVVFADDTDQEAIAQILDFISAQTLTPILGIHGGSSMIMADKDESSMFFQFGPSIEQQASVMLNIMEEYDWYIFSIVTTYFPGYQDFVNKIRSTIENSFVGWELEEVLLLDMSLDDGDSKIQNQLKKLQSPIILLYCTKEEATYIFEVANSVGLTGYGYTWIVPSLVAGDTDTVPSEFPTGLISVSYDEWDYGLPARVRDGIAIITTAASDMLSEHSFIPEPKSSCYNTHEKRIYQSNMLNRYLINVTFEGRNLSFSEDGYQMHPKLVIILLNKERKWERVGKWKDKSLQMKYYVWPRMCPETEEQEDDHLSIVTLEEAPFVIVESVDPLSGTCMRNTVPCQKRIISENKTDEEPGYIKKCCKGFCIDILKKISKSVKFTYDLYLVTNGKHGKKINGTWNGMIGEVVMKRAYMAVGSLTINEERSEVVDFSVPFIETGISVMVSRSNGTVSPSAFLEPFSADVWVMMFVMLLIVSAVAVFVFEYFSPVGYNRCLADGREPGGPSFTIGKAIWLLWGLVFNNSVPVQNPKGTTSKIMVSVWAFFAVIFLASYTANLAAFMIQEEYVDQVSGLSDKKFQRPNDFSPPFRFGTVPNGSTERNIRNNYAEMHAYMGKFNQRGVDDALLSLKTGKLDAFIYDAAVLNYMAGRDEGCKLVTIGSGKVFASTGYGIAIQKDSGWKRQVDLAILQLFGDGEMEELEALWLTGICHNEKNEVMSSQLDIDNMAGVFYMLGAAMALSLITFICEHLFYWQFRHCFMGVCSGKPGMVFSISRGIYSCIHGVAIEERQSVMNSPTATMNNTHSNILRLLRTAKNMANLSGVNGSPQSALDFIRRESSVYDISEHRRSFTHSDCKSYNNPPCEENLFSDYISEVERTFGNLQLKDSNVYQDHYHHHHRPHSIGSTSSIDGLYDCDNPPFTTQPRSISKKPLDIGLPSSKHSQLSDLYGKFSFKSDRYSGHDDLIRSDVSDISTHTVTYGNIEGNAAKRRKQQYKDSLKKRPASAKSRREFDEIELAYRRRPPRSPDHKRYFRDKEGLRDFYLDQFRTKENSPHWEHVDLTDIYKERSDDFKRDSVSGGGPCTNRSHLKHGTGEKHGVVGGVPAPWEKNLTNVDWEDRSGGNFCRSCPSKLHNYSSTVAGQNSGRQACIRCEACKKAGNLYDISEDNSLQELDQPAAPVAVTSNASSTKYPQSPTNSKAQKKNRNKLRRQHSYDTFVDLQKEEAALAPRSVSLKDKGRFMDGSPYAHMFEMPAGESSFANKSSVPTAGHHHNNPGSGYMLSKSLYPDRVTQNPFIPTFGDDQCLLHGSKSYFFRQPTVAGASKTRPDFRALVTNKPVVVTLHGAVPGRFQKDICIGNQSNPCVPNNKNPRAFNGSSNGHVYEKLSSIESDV

This assay concerns the target T1, NR2B-subtype NMDA receptors (Rattus norvegicus, UniProt P35439+Q00960).
T1 construct: For membrane preparation, rat forebrains were thawed on ice; from tissue; host or cells: rat forebrain membrane homogenate (Sprague Dawley, Harlan)
The assay is described as follows: Radioligand binding assay (3H Ro 25-6981 competition, rat forebrain membranes). The following applies: 3H Ro 25-6981 4 nM. The protocol: Binding experiments to determine binding to NR2B-subtype NMDA receptors were performed on forebrains of 8-10 weeks old male Sprague Dawley rats (Harlan, Netherlands) using ^3H Ro 25-6981 (Mutel V; Buchy D; Klingelschmidt A; Messer J; Bleuel Z; Kemp J A; Richards J G. Journal of Neurochemistry, 1998, 70(5):2147-2155. Rats were decapitated without anesthesia using a Guillotine (approved by animal ethics committee) and the harvested brains were snap-frozen and stored at −80° C. for 3-6 months for membrane preparation.
For membrane preparation, rat forebrains were thawed on ice for 20 minutes in homogenization buffer composed of 50 mM KH2PO4 (pH adjusted to 7.4 with KOH), 1 mM EDTA, 0.005% Triton X 100 and protease inhibitor cocktail (Sigma Aldrich). Thawed brains were homogenized using a Dounce homogenizer and centrifuged at 48000×g for 20 min. The pellet was resuspended in cold buffer and homogenized again using a Dounce homogenizer. Subsequently, the homogenate was aliquoted, snap-frozen and stored at −80° C. for not more than 3-4 months.
To perform the competition binding assay, thawed membrane homogenate was added to each well of a 96-well plate (20 μg/well). […] The filter plates were dried at 50° C. for 20 mins, incubated with microscint 20 for 10 minutes and finally, the counts were read on TopCount (Perkin Elmer).

`Cc1ccc(CN2CC[C@@H](N3CC[C@@H](c4ccc(O)cc4)[C@H](F)C3)C2=O)cc1` [example 1, (R)-3-((3S,4S)-3-fluoro-4-(4-hydroxyphenyl)piperidin-1-yl)-1-(4-methylbenzyl)pyrrolidin-2-one]: the inhibition constant (Ki) amounted to 4 nM. This lies in the single-digit nanomolar range.

The term Ki denotes a dissociation constant, usually derived from enzyme kinetics or from competition with a known ligand. Read a high Ki as lower affinity.

The values are drawn from US9187506B2, “(R)-3-((3S,4S)-3-fluoro-4-(4-hydroxyphenyl)piperidin-1-yl)-1-(4-methylbenzyl)pyrrolidin-2-one and its prodrugs for the treatment of psychiatric disorders” (Bristol-Meyers Squibb Company, priority 2014, dated 2015).
